The results in this text go back to patent publication US20100144700A1, “HETEROCYCLIC-CARBONYL-DIAZABICYCLOALKANES AS MODULATORS OF THE NEURONAL NICOTINIC ACETYLCHOLINE ALPHA 4 BETA 2, SUBTYPE RECEPTOR FOR THE TREATMENT OF CNS RELATED DISORDERS” (TARGACEPT, INC., priority 2007, published 2010).

Amino acid sequences for entries named in this document (tags omitted). Residues count along the entry.
UniProt P17787, 26-502 limits assumed: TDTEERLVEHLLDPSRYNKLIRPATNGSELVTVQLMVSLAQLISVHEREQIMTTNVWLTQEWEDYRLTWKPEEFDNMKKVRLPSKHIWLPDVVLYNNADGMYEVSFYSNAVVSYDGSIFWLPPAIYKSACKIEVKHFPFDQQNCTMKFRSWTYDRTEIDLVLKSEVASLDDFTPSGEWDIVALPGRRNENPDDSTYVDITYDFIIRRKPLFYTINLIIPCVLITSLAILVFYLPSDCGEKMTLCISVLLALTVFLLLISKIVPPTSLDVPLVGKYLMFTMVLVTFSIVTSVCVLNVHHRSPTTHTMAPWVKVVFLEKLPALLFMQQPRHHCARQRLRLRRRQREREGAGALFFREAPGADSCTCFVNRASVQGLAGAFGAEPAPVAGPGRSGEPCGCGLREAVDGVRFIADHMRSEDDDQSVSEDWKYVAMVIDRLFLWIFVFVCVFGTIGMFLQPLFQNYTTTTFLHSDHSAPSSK
UniProt P43681, 29-627 limits assumed: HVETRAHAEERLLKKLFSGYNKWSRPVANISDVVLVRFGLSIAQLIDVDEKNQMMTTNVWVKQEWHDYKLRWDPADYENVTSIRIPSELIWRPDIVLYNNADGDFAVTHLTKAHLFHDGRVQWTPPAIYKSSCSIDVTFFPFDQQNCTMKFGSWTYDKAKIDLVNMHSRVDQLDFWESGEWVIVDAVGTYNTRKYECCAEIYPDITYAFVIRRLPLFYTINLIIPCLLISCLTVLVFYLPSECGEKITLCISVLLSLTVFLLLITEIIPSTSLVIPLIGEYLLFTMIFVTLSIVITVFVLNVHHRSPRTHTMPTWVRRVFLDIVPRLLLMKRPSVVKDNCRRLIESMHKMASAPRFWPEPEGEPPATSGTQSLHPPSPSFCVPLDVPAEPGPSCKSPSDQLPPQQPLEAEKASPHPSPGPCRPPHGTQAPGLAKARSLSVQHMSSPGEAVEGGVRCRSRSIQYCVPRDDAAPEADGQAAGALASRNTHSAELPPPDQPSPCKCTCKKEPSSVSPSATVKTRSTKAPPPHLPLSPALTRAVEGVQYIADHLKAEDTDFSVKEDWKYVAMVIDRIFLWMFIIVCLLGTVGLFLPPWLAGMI
UniProt Q05941, 23-502 limits assumed: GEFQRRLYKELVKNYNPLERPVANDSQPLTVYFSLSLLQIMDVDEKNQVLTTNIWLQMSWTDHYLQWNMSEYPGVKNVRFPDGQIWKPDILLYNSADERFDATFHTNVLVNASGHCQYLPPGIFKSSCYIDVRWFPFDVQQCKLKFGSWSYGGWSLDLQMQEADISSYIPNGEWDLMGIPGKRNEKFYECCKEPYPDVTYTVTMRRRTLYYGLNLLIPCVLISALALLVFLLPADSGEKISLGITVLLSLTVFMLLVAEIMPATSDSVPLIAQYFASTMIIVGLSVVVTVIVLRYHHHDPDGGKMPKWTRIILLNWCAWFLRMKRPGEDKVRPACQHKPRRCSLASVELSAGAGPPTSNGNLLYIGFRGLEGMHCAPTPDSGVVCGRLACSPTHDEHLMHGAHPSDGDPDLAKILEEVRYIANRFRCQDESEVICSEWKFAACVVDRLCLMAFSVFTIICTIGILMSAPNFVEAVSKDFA
UniProt P09483, 31-630 limits assumed: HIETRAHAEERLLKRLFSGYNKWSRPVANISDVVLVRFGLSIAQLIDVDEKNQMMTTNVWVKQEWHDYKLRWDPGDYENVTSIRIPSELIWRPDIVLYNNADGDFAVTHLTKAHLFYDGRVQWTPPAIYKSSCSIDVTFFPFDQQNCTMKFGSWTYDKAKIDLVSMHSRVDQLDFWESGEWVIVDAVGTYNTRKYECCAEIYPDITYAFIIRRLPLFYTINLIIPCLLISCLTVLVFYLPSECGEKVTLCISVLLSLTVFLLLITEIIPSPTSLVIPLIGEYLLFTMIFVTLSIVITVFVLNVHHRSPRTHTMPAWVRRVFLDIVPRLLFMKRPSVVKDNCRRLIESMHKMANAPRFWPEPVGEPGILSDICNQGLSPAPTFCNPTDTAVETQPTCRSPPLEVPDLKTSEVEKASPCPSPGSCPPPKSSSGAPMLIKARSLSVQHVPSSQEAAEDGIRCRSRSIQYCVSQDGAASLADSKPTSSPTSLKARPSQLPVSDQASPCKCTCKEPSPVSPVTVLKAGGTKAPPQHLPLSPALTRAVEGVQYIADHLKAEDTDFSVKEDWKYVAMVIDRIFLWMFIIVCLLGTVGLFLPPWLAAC
UniProt P12390, 25-500 limits assumed: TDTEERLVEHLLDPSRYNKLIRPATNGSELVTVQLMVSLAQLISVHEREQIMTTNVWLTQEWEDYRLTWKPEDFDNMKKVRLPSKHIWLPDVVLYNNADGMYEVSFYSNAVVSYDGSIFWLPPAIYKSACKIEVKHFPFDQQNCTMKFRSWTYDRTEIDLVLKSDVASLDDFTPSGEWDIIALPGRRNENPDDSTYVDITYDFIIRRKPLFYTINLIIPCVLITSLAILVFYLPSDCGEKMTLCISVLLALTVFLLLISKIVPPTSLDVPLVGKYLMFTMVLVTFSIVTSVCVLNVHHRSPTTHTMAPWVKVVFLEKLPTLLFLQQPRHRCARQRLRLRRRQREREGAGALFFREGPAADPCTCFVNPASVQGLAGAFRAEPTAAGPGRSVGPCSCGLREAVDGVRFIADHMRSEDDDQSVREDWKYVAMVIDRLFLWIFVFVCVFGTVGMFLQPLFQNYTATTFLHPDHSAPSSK

In one assay the target is Human α4β2 (Homo sapiens, UniProt P17787+P43681). The experiment in a line: Binding at human α4β2 subtype (Table 1). To be noted: read-out: Human α4β2 Ki.
A further assay concerns the target α7 nAChR Subtype (Rattus norvegicus, UniProt Q05941). The experiment in a line: Radioligand binding ([3H]MLA) at α7 nAChR subtype, rat hippocampus membranes; HTS at 5 μM. The note with it: 5 μM compound, 5 nM 3H-MLA. On the procedure:
(§1) Rats (female, Sprague-Dawley), weighing 150-250 g, were maintained on a 12 h light/dark cycle and were allowed free access to water and food supplied by PMI Nutrition International, Inc. Animals were anesthetized with 70% CO2, then decapitated. Brains were removed and placed on an ice-cold platform. The hippocampus was removed and placed in 10 volumes (weight:volume) of ice-cold preparative buffer (137 mM NaCl, 10.7 mM KCl, 5.8 mM KH2PO4, 8 mM Na2HPO4, 20 mM HEPES (free acid), 5 mM iodoacetamide, 1.6 mM EDTA, pH 7.4); PMSF, dissolved in methanol to a final concentration of 100 μM, was added and the tissue suspension was homogenized by Polytron. The homogenate was centrifuged at 18,000×g for 20 min at 4° C. and the resulting pellet was re-suspended in 10 volumes of ice-cold water. After 60 min incubation on ice, a new pellet was collected by centrifugation at 18,000×g for 20 min at 4° C. The final pellet was re-suspended in 10 volumes of buffer and stored at −20° C. […] Protein was determined by the method of Lowry et al., J. Biol. Chem. 193: 265 (1951), using bovine serum albumin as the standard.
The binding of [^3H]MLA was measured using a modification of the methods of Davies et al., Neuropharmacol. […] The binding of [^3H]MLA was determined using a 2 h incubation at 21° C. […] Non-specific binding was determined by inclusion of 50 μM non-radioactive MLA in selected wells. […]

The next assay has as its target α4β2 nAChR Subtype (Rattus norvegicus, UniProt P09483+P12390). Nature of the assay: Radioligand binding ([3H]nicotine) at rat α4β2 nAChR subtype, rat cerebral cortex membranes. The note with it: read-out: Rat α4β2 Ki, [3H]nicotine 5 nM. On the procedure:
as §1, with “The cerebral cortex” for “The hippocampus”, “in 20” for “in 10”, “the” for “the tissue”, “Polytron.” for “Polytron. The homogenate was centrifuged at 18,000×g for 20 min at 4° C. and the resulting pellet was re-suspended in 10 volumes of ice-cold water. After 60 min incubation on ice, a new pellet was collected by centrifugation at 18,000×g for 20 min at 4° C. The final pellet was re-suspended in 10 volumes of buffer and stored at −20° C.”
The binding of [^3H]nicotine was measured using a modification of the methods of Romano et al., Science 210: 647 (1980) and Marks et al., Mol. Pharmacol. 30: 427 (1986). […] The binding of [^3H]nicotine was measured using a 3 h incubation at 4° C. […] Non-specific binding was determined by inclusion of 10 μM non-radioactive L-nicotine (Acros Organics) in selected wells.
The inhibition of [^3H]nicotine binding by test compounds was determined by including seven different concentrations of the test compound in selected wells. […]

Take `O=C(c1cc(Br)co1)N1C[C@@H]2CN[C@@H](C2)C1`: the Ki came to 30.5 nM at Human α4β2 and 67.5 nM on α4β2 nAChR Subtype. At α7 nAChR Subtype, the “α7 high throughput screening (HTS) binding” value is “ND; Failed HTS (the compound failed to inhibit, at 5 μM concentration, the binding of 5 nM ^3H-MLA (methyllycaconitine) by at least 50%)”.

As usually defined, the Ki is a dissociation constant, usually derived from enzyme kinetics or from competition with a known ligand.
